Test results as given in patent US20240050524A1, “DELIVERY OF ABETA VARIANTS FOR AGGREGATION INHIBITION” (Baylor College of Medicine, priority 2020, published 2024).

Biological target: wild-type Aβ42 peptide (human)
Experiment: cell-based or functional assay

ThT fluorescence, self-aggregation of the peptide alone (10 µM); time to plateau: < 1 h
Substance: wild-type Aβ42 peptide
